Test results from patent US8623401B2.
Only a part of the results on these compounds is given; other tests are left out.

Assay: Dog study: fentanyl blood (serum) concentrations by ELISA after oral wafer vs i.m. injection
Settings: dogs, 200 mcg fentanyl by i.m. injection

CCC(=O)N(c1ccccc1)C1CCN(CCc2ccccc2)CC1
Cmax for the absorption of fentanyl: approximately 0.63 ng | Tmax for the absorption of fentanyl: 13.8 min
